Experiments:
[1] = In vivo PK, male C57BL/6 mice (Table 2)
MRGPRX4 = MRGPRX4 (Homo sapiens, UniProt Q96LA9); assay: MRGPRX4 activity assay, antagonism versus deoxycholic acid (DCA), IP-One Gq HTRF; settings: read-out: MRGPRX4 antagonist activity; SH-4 cells, versus 30 μM DCA agonist; Table 3
MRGPRX2 = MRGPRX2 (Homo sapiens, UniProt Q96LB1); assay: MRGPRX2 selectivity assay, antagonism versus Substance P, IP-One Gq HTRF in CHO-K1/MRGPRX2 cells; settings: read-out: MRGPRX2 activity IC50; versus 10 μM Substance P; N1; Table 4

Amino acid sequences for entries named in this document (tags omitted).
UniProt Q96LA9, whole entry: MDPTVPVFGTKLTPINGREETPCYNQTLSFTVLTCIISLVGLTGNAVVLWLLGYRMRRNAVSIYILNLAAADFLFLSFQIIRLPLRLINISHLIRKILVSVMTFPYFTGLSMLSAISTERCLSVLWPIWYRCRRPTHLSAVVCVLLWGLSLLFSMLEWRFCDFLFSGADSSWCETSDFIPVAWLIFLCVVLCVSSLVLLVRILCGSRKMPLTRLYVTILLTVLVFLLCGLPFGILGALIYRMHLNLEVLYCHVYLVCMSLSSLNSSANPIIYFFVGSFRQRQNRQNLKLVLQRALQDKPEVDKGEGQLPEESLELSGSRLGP
UniProt Q96LB1, whole entry: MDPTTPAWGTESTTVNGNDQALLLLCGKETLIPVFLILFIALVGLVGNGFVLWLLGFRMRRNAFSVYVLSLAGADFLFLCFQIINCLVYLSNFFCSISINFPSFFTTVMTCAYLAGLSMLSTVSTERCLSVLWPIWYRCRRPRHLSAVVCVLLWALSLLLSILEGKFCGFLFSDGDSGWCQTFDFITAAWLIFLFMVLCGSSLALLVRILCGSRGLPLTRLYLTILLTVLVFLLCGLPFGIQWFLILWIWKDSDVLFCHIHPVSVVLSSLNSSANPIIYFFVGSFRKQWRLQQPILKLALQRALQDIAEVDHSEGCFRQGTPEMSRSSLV

| IC50 (MRGPRX4) [nM] | Compound | also measured |
| --- | --- | --- |
|  | O=C(O)c1cccc(COc2ccc(C(F)(F)F)cc2Cl)c1F | IV CL ([1]; IV 1 mg/kg): 0.27 mL/min/kg; IV Vd ([1]; IV 1 mg/kg): 0.63 L/kg; % F ([1]; IV 1 mg/kg, PO 10 mg/kg): 113%; PO AUC0-t ([1]; PO 10 mg/kg): 354,520 ng-hr/ml; PO Cmax ([1]; PO 10 mg/kg): 29,212 ng/ml; PO T½ ([1]; PO 10 mg/kg): 27 h |
| 500 to 1000 | Cc1cc(-c2nnn[nH]2)cc([C@@H]2Cc3cc(C(F)(F)F)ccc3O2)c1 (single isomer, unassigned) |  |
| 100 to 500 | Cc1cc(-c2nnn[nH]2)cc([C@H]2Cc3cc(C(F)(F)F)ccc3O2)c1 (single isomer, unassigned) |  |
| 100 to 500 | Cc1cc(-c2nnn[nH]2)nc([C@@H]2Cc3cc(C(F)(F)F)ccc3O2)c1 (single isomer, unassigned) |  |
| > 3000 | Cc1cc(-c2nnn[nH]2)nc([C@H]2Cc3cc(C(F)(F)F)ccc3O2)c1 (single isomer, unassigned) |  |
| 500 to 1000 | Clc1cc2c(cc1Cl)OC(c1cccc(-c3nnn[nH]3)c1)C2 (single isomer, unassigned) |  |
| 100 to 500 | Clc1cc2c(cc1Cl)O[C@@H](c1cccc(-c3nnn[nH]3)c1)C2 (single isomer, unassigned) |  |
| < 100 | FC(F)(F)c1cc(Cl)c2c(c1)C[C@@H](c1cccc(-c3nnn[nH]3)c1)O2 (single isomer, unassigned) |  |
| 100 to 500 | FC(F)(F)c1cc(Cl)c2c(c1)C[C@H](c1cccc(-c3nnn[nH]3)c1)O2 (single isomer, unassigned) |  |
| 1000 to 3000 | FC(F)(F)c1ccc2c(c1)C[C@@H](c1cccc(-c3nnn[nH]3)n1)O2 (single isomer, unassigned) |  |
| < 100 | FC(F)(F)c1ccc2c(c1)C[C@H](c1cccc(-c3nnn[nH]3)n1)O2 (single isomer, unassigned) |  |
| < 100 | Fc1c(-c2nnn[nH]2)cccc1[C@@H]1Cc2cc(C(F)(F)F)ccc2O1 (single isomer, unassigned) |  |
| 1000 to 3000 | Fc1c(-c2nnn[nH]2)cccc1[C@H]1Cc2cc(C(F)(F)F)ccc2O1 (single isomer, unassigned) |  |
| < 100 | Fc1cc2c(cc1Cl)C[C@@H](c1cccc(-c3nnn[nH]3)c1)O2 (single isomer, unassigned) |  |
| < 100 | Fc1cc2c(cc1Cl)C[C@@H](c1cccc(-c3nnn[nH]3)n1)O2 (single isomer, unassigned) |  |
| 100 to 500 | Fc1cc2c(cc1Cl)C[C@H](c1cccc(-c3nnn[nH]3)c1)O2 (single isomer, unassigned) |  |

| IC50 (MRGPRX4) [nM] | Compound | also measured |
| --- | --- | --- |
| 500 to 1000 | Fc1cc2c(cc1Cl)C[C@H](c1cccc(-c3nnn[nH]3)n1)O2 (single isomer, unassigned) |  |
| < 100 | N#Cc1cc(-c2noc(=O)[nH]2)cc([C@@H]2Cc3cc(C(F)(F)F)ccc3O2)c1 (single isomer, unassigned) | IC50 (MRGPRX2): > 10000 nM |
| < 100 | N#Cc1cc(-c2noc(=O)[nH]2)cc([C@@H]2Cc3cc(Cl)c(F)cc3O2)c1 (single isomer, unassigned) | IC50 (MRGPRX2): > 10000 nM |
| > 3000 | O=C(O)c1cccc([C@@H]2Cc3cc(C(F)(F)F)ccc3O2)c1 (single isomer, unassigned) |  |
| 1000 to 3000 | O=C(O)c1cccc([C@@H]2Cc3cc(Cl)c(F)cc3O2)c1 (single isomer, unassigned) |  |
| 100 to 500 | O=C(O)c1cccc([C@H]2Cc3cc(C(F)(F)F)ccc3O2)c1 (single isomer, unassigned) |  |
| 100 to 500 | O=C(O)c1cccc([C@H]2Cc3cc(Cl)c(F)cc3O2)c1 (single isomer, unassigned) |  |
| 100 to 500 | O=c1[nH]c(-c2cccc([C@@H]3Cc4cc(C(F)(F)F)ccc4O3)c2)no1 (single isomer, unassigned) |  |
| < 100 | O=c1[nH]c(-c2cccc([C@@H]3Cc4cc(Cl)c(F)cc4O3)c2)no1 (single isomer, unassigned) |  |
| > 3000 | O=c1[nH]c(-c2cccc([C@H]3Cc4cc(C(F)(F)F)ccc4O3)c2)no1 (single isomer, unassigned) |  |
| 1000 to 3000 | O=c1[nH]c(-c2cccc([C@H]3Cc4cc(Cl)c(F)cc4O3)c2)no1 (single isomer, unassigned) |  |
| > 3000 | Oc1c(-c2nnn[nH]2)cccc1[C@@H]1Cc2cc(C(F)(F)F)ccc2O1 (single isomer, unassigned) |  |
| 500 to 1000 | Oc1c(-c2nnn[nH]2)cccc1[C@H]1Cc2cc(C(F)(F)F)ccc2O1 (single isomer, unassigned) |  |
| > 3000 | (S)-1-methyl-5-(3-(5-(trifluoromethyl)-2,3-dihydrobenzofuran-2-yl) phenyl)-1H-1,2,3-triazole |  |
| 1000 to 3000 | m-(5-chloro-2,3-dihydro-1-benzofuran-2-yl) benzoic acid |  |
